# Measured values reported in PubChem BioAssay AID743397 (Broad Institute, 2014).
# The campaign covered roughly 340,000 compounds. About 330 (0.097%) were called active. These results got no clear call from the source, so the numbers are uncertain.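 Rule for the calls: active = mean replicate inhibition of at least 30% and at least 1% of replicates passing that level; inconclusive = only one of the two criteria is met; inactive = neither criterion is met.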
# Tested on: Voltage-dependent L-type calcium channel subunit alpha-1D (CaV1.3) ICDI/IQ interaction
# Test: Primary screen for inhibitors of IQ motif and Ca2+-dependent inactivation inhibitor domain binding in CACNA1D, Förster resonance energy transfer in living cells, single-concentration test (AID 743397);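 note: 0% = median of the neutral control wells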
# Settings: HEK cells, CFP/YFP FRET ICDI-IQ, plate reader, 10 min; at 12.3 µM; active compounds read high; percent FRET-ratio fall versus neutral wells
row,Compound,inhibition
1,CN(C)C(=O)c1cc([N+](=O)[O-])cc2c1-c1c(cc([N+](=O)[O-])cc1[N+](=O)[O-])C2=O,inconclusive: 31.1%
